Values quoted from earlier work as cited in patent US7498161B2 (priority 2003, dated 2009).

System: nitroreductase-expressing V79 cells
Conditions: cited from earlier work

Substance: acyclic 4-nitrobenzyl phosphoramide mustard
- selective cytotoxicity toward nitroreductase-expressing V79 cells: 167,500 ×
- IC50 (nitroreductase-expressing V79 cells): 0.4 nM
- more active than CB1954 (relative to CB1954): about 100 ×
- more selective than CB1954 (relative to CB1954): 27 ×
